Test: Maximum tolerated dose in nude mice

Structure (SMILES): Cn1c(=O)c2c(ncn2C)n(C)c1=O [Caffeine]
- maximum tolerated dose (MTD): 150 mg/kg
